Measurements as given in US20140163034A1, “INHIBITORS OF ANANDAMIDE TRANSPORT AND THEIR THERAPEUTIC USES” (IIT - Istituto Italiano di Tecnologia, priority 2011, published 2014).

Chains of the proteins cited; added tags and fusions are not shown.
UniProt P20272, whole entry: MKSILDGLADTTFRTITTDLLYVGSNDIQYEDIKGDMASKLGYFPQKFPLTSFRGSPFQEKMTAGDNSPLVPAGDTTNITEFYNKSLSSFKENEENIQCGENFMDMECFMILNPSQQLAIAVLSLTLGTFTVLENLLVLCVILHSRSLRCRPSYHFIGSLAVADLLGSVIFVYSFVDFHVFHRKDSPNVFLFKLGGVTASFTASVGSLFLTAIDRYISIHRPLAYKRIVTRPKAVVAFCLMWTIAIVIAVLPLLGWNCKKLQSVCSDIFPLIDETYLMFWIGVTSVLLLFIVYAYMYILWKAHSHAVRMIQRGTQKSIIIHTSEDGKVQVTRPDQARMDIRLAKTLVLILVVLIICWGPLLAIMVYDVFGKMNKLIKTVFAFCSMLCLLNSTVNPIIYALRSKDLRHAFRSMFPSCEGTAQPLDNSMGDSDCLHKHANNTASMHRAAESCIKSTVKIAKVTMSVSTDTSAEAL

Target: CB1 cannabinoid receptors (Rattus norvegicus, UniProt P20272)
Assay: Cannabinoid receptor binding assay, [3H]-CP55940 to rat brain membranes

CCCCC/C=C\C/C=C\C/C=C\C/C=C\CCCCOP(=O)(F)OC (stereo not shown)
effect on [3H]-CP55940 binding to rat brain membranes: significantly inhibited
